Experiment: Sheep model of allergic asthma (Ascaris suum challenge)
Assay type: in vivo
Settings: 30 mg/sheep, 45% PEG400/55% citrate buffer, 60 minutes prior to challenge
Description: Sheep develop bronchoconstriction within minutes of exposure to inhaled antigen (Ascaris suum), with maximal airflow obstruction during the early allergic response (EAR). Release of preformed mast cell mediators is likely responsible for this early phase of airflow obstruction. […] In the sheep, AHR develops a few hours following antigen challenge, and can persist for up to 2 weeks.
In the sheep model of allergic asthma, sheep are administered aerosols of test article via an endotracheal tube, followed by an aerosol challenge with antigen extracted from the roundworm, Ascaris suum, to which the sheep are naturally allergic. Allergen challenge leads to direct bronchoconstriction (both EAR and LAR) and a persistent non-specific AHR. These three characteristics are similar to those seen in human allergic asthmatics. The activity of the test agent is determined by changes in the lung resistance (RL), which is calculated from measurements of transpulmonary pressure, flow, and respiratory volume. […] The LAR is a less pronounced increase in RL, which starts approximately 5-6 hours following allergen challenge and is resolved by 8 hours post-challenge. Twenty-four hours after the challenge, a dose response to carbachol is measured to determine the AHR, which is expressed as the dose of carbachol required to increase RL by 400% over baseline. […]

SMILES: Nc1cccc(Nc2ncc(F)c(Nc3cccc(N)c3)n2)c1 [R921302, N2,N4-Bis(3-aminophenyl)-5-fluoro-2,4-pyrimidinediamine]
- EAR (in words): unaffected
- LAR and AHR (in words): blocked
